Assay [1] concerns the target Delta-type opioid receptor (Homo sapiens, UniProt P41143). The assay is described as follows: Displacement of [3H]naltrindole from cloned human delta opioid receptor expressed in CHO cells. Background: Loss of bound radioactivity is the signal in a displacement assay; it reports binding, not function.
The target in the next assay is Nociceptin receptor (Homo sapiens, UniProt P41146). The assay is described as follows: Agonist activity on nociceptin-induced maximal [35S]GTP-gamma-S binding to ORL1 expressed in CHO cells. A general note: GTPγS is a poorly hydrolysed GTP analogue; its binding reports G protein activation.

What is called IC50 is the concentration at which inhibition is half-maximal. Read a high IC50 as weaker potency. For orientation: EC50 means the concentration that produces a half-maximal response. Higher therefore signals a less potent agent. `CCn1c(=O)n([C@@H]2CCN(CC3CCCCCCC3)C[C@H]2CO)c2ccccc21`: the IC50 in assay [1] is over 10 µM. The molecule further showed a concentration giving a half-maximal response (EC50) on Nociceptin receptor of over 10 µM.

For the origin of these results see BindingDB's records for 16451050.
